Molecular target: Metabotropic glutamate receptor 5 (Homo sapiens, UniProt P41594)
Assay: Selectivity ratio of IC50 for human mGluR5 to EC50 for human mGluR5

- Selectivity ratio: > 30
Structure (SMILES): Nc1nccc(/C=C/c2ccccc2)n1
